Literature values as cited in article PMC3169519 (PLoS Computational Biology, 2011).

Conditions: cancer patients; cited from earlier work

CCc1c2c(nc3ccc(OC(=O)N4CCC(N5CCCCC5)CC4)cc13)-c1cc3c(c(=O)n1C2)COC(=O)[C@]3(O)CC [CPT11, irinotecan]
time CPT11 remained in the blood: approximately 24 h
